The source of these data is patent US20030138864A1, “Method for identifying an enzyme to design anti-cancer compounds” (priority 2001, published 2003).

Where a name gives a salt, the structure may show the parent alone. Read-outs that look alike come from different tables or passages of the source.

One may read the IC50 as the concentration that inhibits the measured activity by half.

Common to all, as to format: cell-based
Data set [1] relates to HCT116: human colon cancer cell line. Description: Growth inhibition (cytotoxicity, WST-8) of HCT116 cells expressing only a low level of microsomal dipeptidase. The settings on record: drug exposure time; 24 hr, then drug removed and cells cultured further. The method, then:
The activation of the compounds is mediated by microsomal dipeptidase. The inhibitory activities of the compounds is determined against growth of the cells expressing a low level of microsomal dipeptidase, those expressing a high level of microsomal dipeptidase, and granulocyte progenitors that are expanded ex vivo. […] A stable transfectant, HCT116/S5, into which the human microsomal dipeptidase cDNA (herafter called MDP) connected to the CMV promoter was transfected, is used as the cells expressing a high level of microsomal dipeptidase. […] HCT116, HCT116/S5, and granulocyte porogenitors are cultured in the absence and presence of the drugs. […] The IC50 values are determined and compared among HCT116, HCT116/S5, and granulocyte porogenitors.
Transfection of the DNA was carried out by using TransIT-LT2 (PanVera, Madison, USA, Calatog No. MIR2320) according to the manufacturer's instruction. […] The cells that grew in the presence of 1 mg/ml G418 were collected and cultivated in MaCoy5A medium.
By using 96-multi well plates, approximately 2×10^3 cells per well of the HCT116 bearing pRC/CMV and HCT116S5 carrying pRC/CMV-MDP were cultured in 200 μl of McCoy5A medium supplemented with 10% FBS in the presence or absence of the indicated concentrations of the drugs at 37° C. under 5% CO2 in humidified air. […]

The subject of data set [2] is HCT116/S5: HCT116 transfected with the human microsomal dipeptidase cDNA. Description: Growth inhibition (cytotoxicity, WST-8) of HCT116/S5 cells expressing a high level of microsomal dipeptidase. As to conditions: drug exposure time; 24 hr, then drug removed and cells cultured further. The method, then: (§1) The activation of the compounds is mediated by microsomal dipeptidase. The inhibitory activities of the compounds is determined against growth of the cells expressing a low level of microsomal dipeptidase, those expressing a high level of microsomal dipeptidase, and granulocyte progenitors that are expanded ex vivo. The human colon cancer cell line, HCT116 (American Type Culture Collection No. CCL-247), and granulocyte progenitors are used as the cells expressing only a low level of microsomal dipeptidase. A stable transfectant, HCT116/S5, into which the human microsomal dipeptidase cDNA (herafter called MDP) connected to the CMV promoter was transfected, is used as the cells expressing a high level of microsomal dipeptidase. […] The IC50 values are determined and compared among HCT116, HCT116/S5, and granulocyte porogenitors. […]
By using 96-multi well plates, approximately 2×10^3 cells per well of the HCT116 bearing pRC/CMV and HCT116S5 carrying pRC/CMV-MDP were cultured in 200 μl of McCoy5A medium supplemented with 10% FBS in the presence or absence of the indicated concentrations of the drugs at 37° C. under 5% CO2 in humidified air. […] Cell growth inhibition was calculated as IC50 values according to optical densities at 450 nm and at 655 nm. […] Cell growth inhibition was calculated as IC50 values according to optical densities at 450 nm and at 655 nm.
A general note: Tetrazolium dyes change colour on reduction, which living cells bring about.

Data set [3] concerns CFU-GM: human bematopoietic progenitor cells. Put plainly: Growth inhibition (cytotoxicity, WST-1) of granulocyte progenitors expanded ex vivo (CFU-GM). How it is done: as §1, with “dipeptidase.” for “dipeptidase. A stable transfectant, HCT116/S5, into which the human microsomal dipeptidase cDNA (herafter called MDP) connected to the CMV promoter was transfected, is used as the cells expressing a high level of microsomal dipeptidase.”
CD34-positive mononuclear cells derived from the human umbilical cord blood and bone marrow (Veritas Co, Tokyo, Japan, Catalog No.CB009F, ABM019F) were cultured on a confluent monolayer of MS5 (Itoh, K., et al. Reproducible establishment of hematopoietic supportive stromal cells from murine bone marrow. Exp. Hematol. 17, 145-153 (1989)). […] After washing with PBS containing 10% (v/v) FCS, the expression of CD antigens were detected by using FACSCalibur (Becton Dickinson, Franklin Lakes, N.J., USA) according to the FACSCalibur Traing mannual (FACStation ver1.1. Becton Dickinson, Franklin Lakes, N.J., USA.). […]

With “13α-((2R,3S)-2-{(5S)-[5-((2S)-2-amino-propinoylamino)-5-hydroxycarbonyl]pentanoylox}-3-benzoylamino-3-phenylpropionyloxy)-2α-benzyloxy-4α,10β-diacetoxy-1β,7β-dihydroxy-5β,20-epoxy-tax-11-en-9-one formic acid salt [Example 4]”, the IC50 in data set [1] turned out to be 51 nM; in data set [2], 5.1 nM; in data set [3] it was 54 nM.
As for `CCCCCN1C=Nc2cccc3nc4c(c1c23)Cn1c-4cc2c(c1=O)COC(=O)[C@@]2(CC)OC(=O)CC[C@@H](NC(=O)[C@@H](N)CC(C)C)C(=O)O` [Example 49-4, (9S)-9-ethyl-9-[(L)-leucyl-(D)-γ-glutamyloxy]-1-pentyl-1H,12H-pyrano[3″,4″:6′,7′]-indolizino[1′,2′:6,5]pyrido[4,3,2-de]quinazoline-10,13(9H,15H)-dione hydrochloride], the IC50 in data set [3] (drug exposure time, 24 hr, then cultured for 6 days without drugs, read-out: Cytotoxicity (IC50 in nM) CFU-GM) is 54 nM.
